Experimental data as given in patent US20250188084A1, “COMPOUNDS AND METHODS FOR MODULATING CDK9 ACTIVITY” (KRONOS BIO, INC., priority 2020, published 2025).

Amino acid sequences for entries named in this document (tags omitted).
UniProt P50750, whole entry: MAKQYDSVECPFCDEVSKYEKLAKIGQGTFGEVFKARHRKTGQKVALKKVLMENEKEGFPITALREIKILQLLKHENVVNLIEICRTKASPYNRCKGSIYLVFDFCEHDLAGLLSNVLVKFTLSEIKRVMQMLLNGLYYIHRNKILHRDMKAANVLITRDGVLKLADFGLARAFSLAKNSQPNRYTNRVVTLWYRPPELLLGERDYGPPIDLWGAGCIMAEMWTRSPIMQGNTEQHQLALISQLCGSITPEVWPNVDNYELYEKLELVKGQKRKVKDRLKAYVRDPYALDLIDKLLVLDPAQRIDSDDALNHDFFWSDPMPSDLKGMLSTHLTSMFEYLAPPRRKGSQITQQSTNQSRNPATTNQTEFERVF
UniProt O60563, whole entry partner: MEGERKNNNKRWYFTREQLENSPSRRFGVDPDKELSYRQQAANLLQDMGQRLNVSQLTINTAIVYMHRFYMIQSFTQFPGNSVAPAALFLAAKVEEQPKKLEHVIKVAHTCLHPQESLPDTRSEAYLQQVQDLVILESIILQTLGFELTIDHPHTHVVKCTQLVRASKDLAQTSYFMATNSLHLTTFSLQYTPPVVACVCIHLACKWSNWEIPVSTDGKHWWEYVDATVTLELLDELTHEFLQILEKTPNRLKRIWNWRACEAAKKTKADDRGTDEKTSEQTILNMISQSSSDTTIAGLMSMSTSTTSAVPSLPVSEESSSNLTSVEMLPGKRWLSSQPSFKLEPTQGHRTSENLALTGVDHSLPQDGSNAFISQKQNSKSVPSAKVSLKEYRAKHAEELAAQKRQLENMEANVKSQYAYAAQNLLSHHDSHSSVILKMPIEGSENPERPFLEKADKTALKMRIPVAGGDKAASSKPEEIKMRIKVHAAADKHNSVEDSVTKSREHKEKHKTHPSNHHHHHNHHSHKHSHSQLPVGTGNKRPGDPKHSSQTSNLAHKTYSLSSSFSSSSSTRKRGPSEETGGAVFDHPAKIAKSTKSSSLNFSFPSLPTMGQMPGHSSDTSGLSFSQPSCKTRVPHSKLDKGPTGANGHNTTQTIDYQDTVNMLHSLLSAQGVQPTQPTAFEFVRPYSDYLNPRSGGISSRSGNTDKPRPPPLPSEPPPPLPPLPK

What was measured:
CDK9 [1] = biological target: T1, CDK9 (Homo sapiens, UniProt P50750); experiment: CDK9 degradation by HiBit assay, NCIH211 cells; settings: read-out: HiBit-NCIH211.2 DC50; NCIH211 cells with endogenously tagged N-terminal CDK9-HiBit, 24 hours incubation
Description: (§1) Exemplary compounds of the invention were tested for degradation of CDK9. The compounds were tested in 10-dose DC50 duplicate mode with a 3-fold serial dilution starting at 10 μM by HiBit assay (Promega, Inc) as a direct measurement of CDK9 presence, with incubation time of 24 hours using either NCIH211 cells with endogenously tagged N-terminal CDK9-HiBit or NCIH1048 cells with endogenously tagged N-terminal CDK9-HiBit. A control compound (THAL-SNS-032, CAS 2139287-33-3) was tested in 10-dose DC50 mode with 3-fold serial dilution starting at 10 μM. Data was normalized to positive (medium only) and negative (cells with no treatment) controls and curve fits were analyzed with CDK9 as % response vs. log [compound concentration] using a 4-parameter logistic model by GraphPad software. For Table 2: A is <100, B is <1000 C is <10,000, D is >10,000 and ND is Not Determined.

CDK9 [2] = biological target: T1, CDK9; experiment: CDK9 degradation by HiBit assay, NCIH1048 cells; settings: read-out: HiBit-NCIH1048.3 DC50; NCIH1048 cells with endogenously tagged N-terminal CDK9-HiBit, 24 hours incubation
Description: as §1

| SMILES | DC50 (CDK9 [1]) [µM] | DC50 (CDK9 [2]) [µM] |
| --- | --- | --- |
| CCC(CC)c1cc(N[C@H]2CC[C@H](NCC(=O)NCc3cn(CCOCCOCCOc4cc(-c5scnc5C)ccc4CNC(=O)[C@@H]4C[C@@H](O)CN4C(=O)[C@H](C(C)C)N4Cc5ccccc5C4=O)nn3)C2)n2nccc2n1 | > 10 | – |
| C/C=C(\CC)c1cc(N[C@H]2CC[C@H](NCC(=O)N3CCN(CCNc4cccc5c4C(=O)N(C4CCC(=O)NC4=O)C5=O)CC3)C2)n2nccc2n1 (stereo partly drawn) | < 0.1 | < 0.1 |
